The target of one test is rat orexin 1 receptor (Rattus norvegicus, UniProt P56718). Put plainly: Rat orexin 1 receptor radioligand binding. Particulars: read-out: rOX1 Ki. The procedure:
(§1) Data are analyzed using pc-Sandy macro and graphed on Graphpad Prism 5. For analysis, each concentration point is averaged from triplicate values and the averaged values are plotted on Graphpad Prism. The IC50 was determined by applying the following equation (GraphPad Prism 5.0, SanDiego) for one site competition where X=log (concentration) and Y=specific binding. Top denotes the total [^3H]-(1-(5-(2-fluoro-phenyl)-2-methyl-thiazol-4-yl)-1-((S)-2-(5-phenyl-(1,3,4)oxadiazol-2-ylmethyl)-pyrrolidin-1-yl)-methanone) binding, bottom denotes the nonspecific [^3H]-(1-(5-(2-fluoro-phenyl)-2-methyl-thiazol-4-yl)-1-((S)-2-(5-phenyl-(1,3,4)oxadiazol-2-ylmethyl)-pyrrolidin-1-yl)-methanone) binding. Graphpad Prism calculates Ki value from IC50 and the pre-determined Kd values for [^3H]-(1-(5-(2-fluoro-phenyl)-2-methyl-thiazol-4-yl)-1-((S)-2-(5-phenyl-(1,3,4)oxadiazol-2-ylmethyl)-pyrrolidin-1-yl)-methanone) and [3H]-EMPA. The Ki for each compound is then uploaded into 3DX. Each run comprises individual compounds in triplicate. […]
(§2) After centrifugation (2K×G, 5 min at 4° C.), the supernatant was aspirated and the pellets frozen and stored at −80° C. […] Total and nonspecific binding was determined in the absence and presence of 10 μM almorexant. […] Plates were dried in 55° C. oven for 60 min, scintillation fluid was added, and the radioactivity was counted on a Topcount (Packard).

Chains of the proteins cited; added tags and fusions are not shown.
UniProt O43614, whole entry: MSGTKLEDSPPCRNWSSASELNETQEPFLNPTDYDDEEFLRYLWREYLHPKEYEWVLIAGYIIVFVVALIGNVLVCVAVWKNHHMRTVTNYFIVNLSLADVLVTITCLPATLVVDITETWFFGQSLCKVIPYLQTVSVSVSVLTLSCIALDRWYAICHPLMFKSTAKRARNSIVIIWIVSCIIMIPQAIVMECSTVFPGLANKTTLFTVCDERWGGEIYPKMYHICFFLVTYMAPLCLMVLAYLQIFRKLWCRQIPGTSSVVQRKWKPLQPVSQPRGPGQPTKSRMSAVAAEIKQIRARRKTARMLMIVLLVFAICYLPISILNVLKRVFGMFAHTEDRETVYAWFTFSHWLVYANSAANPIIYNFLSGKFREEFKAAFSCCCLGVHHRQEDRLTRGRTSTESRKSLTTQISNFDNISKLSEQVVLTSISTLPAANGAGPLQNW

A further test addresses human orexin 1 receptor (Homo sapiens, UniProt O43613). Put plainly: Human orexin 1 receptor radioligand binding. Particulars: read-out: hOX1 Ki. The procedure: as §1, §2
In the next test the target is human orexin 2 receptor (Homo sapiens (Human), UniProt O43614). Put plainly: Human orexin 2 receptor radioligand binding. To be noted: read-out: hOX2 Ki. The procedure: Data are analyzed using pc-Sandy macro and graphed on Graphpad Prism 5. For analysis, each concentration point is averaged from triplicate values and the averaged values are plotted on Graphpad Prism. The IC50 was determined by applying the following equation (GraphPad Prism 5.0, SanDiego) for one site competition where X=log (concentration) and Y=specific binding. Top denotes the total [^3H]-(1-(5-(2-fluoro-phenyl)-2-methyl-thiazol-4-yl)-1-((S)-2-(5-phenyl-(1,3,4)oxadiazol-2-ylmethyl)-pyrrolidin-1-yl)-methanone) binding, bottom denotes the nonspecific [^3H]-(1-(5-(2-fluoro-phenyl)-2-methyl-thiazol-4-yl)-1-((S)-2-(5-phenyl-(1,3,4)oxadiazol-2-ylmethyl)-pyrrolidin-1-yl)-methanone) binding. Graphpad Prism calculates Ki value from IC50 and the pre-determined Kd values for [^3H]-(1-(5-(2-fluoro-phenyl)-2-methyl-thiazol-4-yl)-1-((S)-2-(5-phenyl-(1,3,4)oxadiazol-2-ylmethyl)-pyrrolidin-1-yl)-methanone) and [3H]-EMPA. The Ki for each compound is then uploaded into 3DX. Each run comprises individual compounds in triplicate. The data in Table 1 and Table 2 represent averages from between 2-20 runs
Human Orexin 2 Receptor Radioligand Binding Studies […]

As a reminder, the Ki is a measure of affinity in units of concentration, obtained from inhibition or displacement. Regarding “(6-methyl-3-(2H-1,2,3-triazol-2-yl)pyridin-2-yl)((1S,4R,6R)-6-((5-(trifluoromethyl)pyrazin-2-yl)amino)-2-azabicyclo[2.2.2]octan-2-yl)methanone [Example 83]”, the values for the Ki at rat orexin 1 receptor, at human orexin 1 receptor and on human orexin 2 receptor were 8 nM, 5 nM and 289 nM, respectively.
